# Reference: ChEMBL document CHEMBL1133089 (J Med Chem, 2000)
# Chains of the proteins cited; added tags and fusions are not shown. Residues count along the entry.
# UniProt Q05941, 23-502 limits assumed: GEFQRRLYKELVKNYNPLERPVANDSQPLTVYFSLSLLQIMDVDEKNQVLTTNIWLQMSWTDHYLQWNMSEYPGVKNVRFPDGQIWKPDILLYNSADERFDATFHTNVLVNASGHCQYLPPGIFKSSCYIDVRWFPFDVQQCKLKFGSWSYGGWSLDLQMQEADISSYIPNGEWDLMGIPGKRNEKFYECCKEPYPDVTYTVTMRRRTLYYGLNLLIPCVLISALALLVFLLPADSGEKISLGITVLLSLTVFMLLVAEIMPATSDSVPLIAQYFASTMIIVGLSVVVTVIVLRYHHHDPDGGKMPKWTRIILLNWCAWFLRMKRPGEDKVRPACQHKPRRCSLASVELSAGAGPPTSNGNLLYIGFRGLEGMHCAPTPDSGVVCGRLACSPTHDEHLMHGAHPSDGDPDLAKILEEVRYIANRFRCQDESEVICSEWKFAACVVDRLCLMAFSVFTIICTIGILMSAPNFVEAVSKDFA
# UniProt P09483, 31-630 limits assumed: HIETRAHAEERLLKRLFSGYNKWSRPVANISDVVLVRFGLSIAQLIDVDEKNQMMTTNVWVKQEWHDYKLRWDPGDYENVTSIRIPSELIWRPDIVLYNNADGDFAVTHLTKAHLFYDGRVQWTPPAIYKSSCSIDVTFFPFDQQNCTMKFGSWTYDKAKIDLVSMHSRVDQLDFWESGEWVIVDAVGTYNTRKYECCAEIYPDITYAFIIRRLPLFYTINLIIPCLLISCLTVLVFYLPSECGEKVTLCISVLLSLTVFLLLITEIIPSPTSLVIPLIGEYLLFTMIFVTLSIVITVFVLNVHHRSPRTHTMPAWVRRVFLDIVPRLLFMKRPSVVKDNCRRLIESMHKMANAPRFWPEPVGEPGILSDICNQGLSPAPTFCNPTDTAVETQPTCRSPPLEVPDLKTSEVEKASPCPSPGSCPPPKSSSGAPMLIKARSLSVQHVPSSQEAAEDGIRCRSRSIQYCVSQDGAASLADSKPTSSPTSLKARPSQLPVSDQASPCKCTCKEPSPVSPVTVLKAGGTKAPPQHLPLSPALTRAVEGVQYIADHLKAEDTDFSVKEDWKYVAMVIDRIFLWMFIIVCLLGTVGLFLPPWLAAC
# UniProt P12390, 25-500 limits assumed: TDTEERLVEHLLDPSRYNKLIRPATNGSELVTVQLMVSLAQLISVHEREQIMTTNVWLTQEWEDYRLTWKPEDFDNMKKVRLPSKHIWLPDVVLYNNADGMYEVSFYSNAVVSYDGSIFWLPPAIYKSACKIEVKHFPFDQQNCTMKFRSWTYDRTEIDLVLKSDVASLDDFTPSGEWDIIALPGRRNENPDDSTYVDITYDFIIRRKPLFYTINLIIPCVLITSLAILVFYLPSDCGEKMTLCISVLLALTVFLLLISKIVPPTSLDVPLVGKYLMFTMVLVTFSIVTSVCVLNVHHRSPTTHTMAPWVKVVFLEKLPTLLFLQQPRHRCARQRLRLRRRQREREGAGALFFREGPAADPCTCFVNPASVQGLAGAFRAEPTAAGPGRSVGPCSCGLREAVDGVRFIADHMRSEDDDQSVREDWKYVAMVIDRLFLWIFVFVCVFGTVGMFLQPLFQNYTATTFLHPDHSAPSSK
# Values joined by “and” are separate entries in the source; they are usually repeats but may differ in a detail not shown here. Identical values can stand only once.
# Legend:
# [1] = target: T1, Neuronal acetylcholine receptor subunit alpha-7 (Rattus norvegicus, UniProt Q05941); conditions: Hippocampus
# [2] = target: T2, Neuronal acetylcholine receptor; alpha4/beta2 (Rattus norvegicus, UniProt P09483+P12390); assay: binding affinity in rat forebrain against alpha4-beta2 nicotinic receptor
# [3] = target: T2, Neuronal acetylcholine receptor; alpha4/beta2
# [4] = target: T1, Neuronal acetylcholine receptor subunit alpha-7; assay: Binding affinity in rat hippocampi against Nicotinic acetylcholine receptor alpha7; conditions: Hippocampus
# [5] = target: T2, Neuronal acetylcholine receptor; alpha4/beta2; assay: Binding affinity in rat forebrain against Nicotinic acetylcholine receptor alpha4-beta2
compound,measurement,setting,value
O=C1NCCC2(CN3CCC2CC3)O1 (stereo unspecified),Ki,[1],23000 nM
CN1CC2(CN3CCC2CC3)OC1=O (stereo unspecified),Ki,[2],450 nM and 200 nM
same,Ki,[3],24000 nM
O=C1OCC2(CN3CCC2CC3)O1 (stereo unspecified),Ki,[4],560 nM
same,Ki,[5],2200 nM
O=C1CCC2(CN3CCC2CC3)O1 (stereo unspecified),Ki,[4],3700 nM
